# Curated experimental data: melting point values

Data: OPERA 2.9 data sets, kmansouri/OPERA on GitHub.

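OPERA's authors assembled the values from existing databases and did not measure them anew. The files give a single number for a compound and property, which may rest on several reports. Method, purity and exact conditions of the single measurements are not given. The measured form (salt, isomer or mixture) is not always the one drawn. Some entries may be limits or estimates that an upstream database listed as plain numbers.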

The melting point is given in degrees Celsius.

| structure (SMILES) | MP (°C) |
|---|---|
| CC(C)NS(=O)(=O)c1ccc(Cl)c(C(=O)O)c1 | 148 |
| O=c1nc[nH]c2cc(F)c([N+](=O)[O-])cc12 | 293 |
| Oc1cccc2c1NCCC2 | 117 |
| N#Cc1cc(N)ccc1Cl | 128 |
| CC(=O)NCCc1ccc(S(=O)(=O)Cl)cc1 | 132 |
| Cc1cccc(C(=O)N(NC(=O)c2ccccc2)C(C)(C)C)c1C | 204 |
| CC1(C)C2=CCCC(C)(C)[C@]23CC[C@H]1C3 | -10.64 |
| CN1C(=O)N(C)C(O)C1O (stereo unspecified) | 130 |
| O=Cc1ccc(-c2cccnc2)o1 | 105 |
| Cc1sc2[nH]c(=S)n(C)c(=O)c2c1C | 289 |
| COc1ccc(NC(=O)c2ccc(N)cc2)cc1 | 188 |
| COc1ccccc1-n1cn[nH]c1=S | 205 |
| Nc1ccnn1Cc1cccnc1 | 87 |
| CCCCOc1ccc(C=O)cc1OCC | 39 |
| COc1ccc2c(c1)OCC(C=O)=C2 | 83 |
| O=C(O)CNC(=O)c1ccc2ccccc2c1 | 173 |
| Nc1nc(-c2cccc(Cl)c2)cs1 | 126 |
| CCOc1ccc(N)cc1Cl | 64 |
| O=C(CCl)Nc1ccc(F)c(F)c1 | 107 |
| O=S(=O)([O-])c1cccc2c(S(=O)(=O)[O-])cccc12.[Na+].[Na+] | 215 |
| NC(=O)NCCCC(=O)O | 172 |
| CCC(C)NS(=O)(=O)c1cccc(C(=O)O)c1 (stereo unspecified) | 156 |
| Cc1nn(-c2ccccc2)c(C)c1CN | 78 |
| CC(C)CCNC(=O)CC(=O)NCCC(C)C | 70 |
| C=CCc1ccc(OC(=O)c2ccccc2)c(OC)c1 | 69.5 |
| O=C(O)C1(c2ccc(Br)cc2)CCCCC1 | 180 |
| CCN(CC(=O)O)C(=O)OC(C)(C)C | 87.5 |
| O=C(CCl)c1ccc2[nH]c(=O)[nH]c2c1 | 284 |
| O=S(=O)(NS(=O)(=O)C(F)(F)C(F)(F)C(F)(F)C(F)(F)F)C(F)(F)C(F)(F)C(F)(F)C(F)(F)F | 120.7 |
| Cc1cc(C)n(-c2ccc(CO)cc2)n1 | 17 |
| COc1ccc(-c2n[nH]c(=S)n2N)cc1OC | 206 |
| CC(=O)c1ccc(OC(C)C)cc1 | 43 |
| CN1CCN(CC(=O)N2c3ccccc3C(=O)Nc3cccnc32)CC1.Cl | 271.1 |
| O=C(O)/C=C/c1cccc(F)c1 | 166.5 |
| O=[N+]([O-])c1sccc1Br | 81 |
| O=C(O)c1cc(-c2ccc(Br)cc2)nc2ccccc12 | 242 |
| CN(C)c1nc(N)nc(CC#N)n1 | 140 |
| O=C(O)CCCN1C(=O)c2cccc3cccc(c23)C1=O | 87 |
| O=Cc1ccc(-c2cccc(Br)c2)o1 | 100 |
| CCOC(=O)C(=O)Cc1ccc2ccccc2n1 | 131 |
| CC1Oc2ccc(N)cc2NC1=O (stereo unspecified) | 199 |
| COC(=O)c1cc(C)ccc1C1=NC(=O)C(C)(C(C)C)N1 (stereo unspecified) | 113 |
| COc1cc(C(=O)O)ccc1OCc1ccccc1 | 175 |
| O=C(CCl)N[C@@H](Cc1c[nH]c2ccccc12)C(=O)O | 154 |
| Cn1c(-c2ccc(F)cc2)n[nH]c1=S | 113 |
| CC1=C(O)C(=O)c2ccccc2C1=O | 174 |
| Cc1nn(-c2cccc(Cl)c2)nc1C(=O)O | 203 |
| O=C(O)C(Cc1ccccc1)n1cnnn1 (stereo unspecified) | 163 |

The first 4 entries again:

| structure (SMILES) | MP (°C) |
|---|---|
| CC(C)NS(=O)(=O)c1ccc(Cl)c(C(=O)O)c1 | 148 |
| O=c1nc[nH]c2cc(F)c([N+](=O)[O-])cc12 | 293 |
| Oc1cccc2c1NCCC2 | 117 |
| N#Cc1cc(N)ccc1Cl | 128 |